The values below are quoted from earlier work in patent US20230184643A1, “METHOD FOR MEASURING OR IDENTIFYING A COMPONENT OF INTEREST IN SPECIMENS” (SHIMADZU CORPORATION, priority 2020, published 2023).

SMILES strings stand for the structures. Where two headings read alike, the source gives them in different places. Only a part of the results on these compounds is given; other tests are left out.

Take `CCC(=O)N(c1ccccc1)C1CCN(CCc2ccccc2)CC1`: the LogP – broadly, the decadic logarithm of the partition coefficient of the neutral form, usually between octanol and water – was 4.05 (Table 2.1, retrieved from Drug bank, accessed April 2020) and 4.05 (Table S1, source not given).
